# Laboratory results taken from patent publication US7488745B2, “Compounds for the treatment of inflammatory disorders” (Schering Corporation, priority 2004, dated 2009).
# Chains of the proteins cited; added tags and fusions are not shown. Residues count along the entry.
# UniProt P78536, 215-477 S266A/N452Q limits assumed: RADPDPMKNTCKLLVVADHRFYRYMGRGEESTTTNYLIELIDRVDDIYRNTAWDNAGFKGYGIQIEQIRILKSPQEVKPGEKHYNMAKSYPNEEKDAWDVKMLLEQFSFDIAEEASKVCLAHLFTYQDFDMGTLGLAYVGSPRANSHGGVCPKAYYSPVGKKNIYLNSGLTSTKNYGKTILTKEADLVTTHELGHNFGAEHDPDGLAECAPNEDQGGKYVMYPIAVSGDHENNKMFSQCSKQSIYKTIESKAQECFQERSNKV
# Biological target: purified catalytic domain of recombinant human TACE (rhTACEc) (Homo sapiens, UniProt P78536, N452Q/S266A)
# Experiment: TACE kinetic assay: cleavage of internally quenched peptide substrate SPDL-3 (fluorescence)
# [1] = Ki (nM), TACE inhibitory activity, class letters
# [2] = Ki (nM), TABLE 6000, Ki printed as class symbols A-D
# [3] = Ki Rating, TACE inhibitory activity, Table 3000
# [4] = Ki (nM), Specific TACE inhibitory activity (Ki values)
Ki [2] [nM],Ki [3] [nM],Structure (SMILES),other results
–,–,O=C1NC(=O)C(CN2Cc3cc(OCc4cc(-c5ccccc5)nc5ccccc45)ccc3C2=O)(c2ccc(F)cc2)N1 (stereo not drawn) [Compound 208],Ki [1]: 10 to 100 nM
< 10,–,COc1ccc2c(c1)C(=O)N(C[C@@]1(c3cc4cc5ccccc5nc4o3)NC(=O)NC1=O)C2 [Compound 9934],–
–,10 to 100,O=C1NC(=O)[C@](CN2Cc3ccc(O)cc3C2=O)(c2ccc(-c3cnccn3)cc2)N1 [Compound 4009],–
–,< 10,Cn1cncc1-c1ccc([C@]2(CN3Cc4ccc(F)cc4C3=O)NC(=O)NC2=O)cc1 [Compound 3002],–
–,10 to 100,COc1ccc2c(c1)C(=O)N(C[C@@]1(c3ccc(-c4cc(C)c5c(cnn5CC5CC5)c4)cc3)NC(=O)NC1=O)C2 [Compound 7014],–
< 10,–,COc1ccc2c(c1)C(=O)N(C[C@@]1(c3ccc(-c4csc(C)n4)cc3)NC(=O)NC1=O)C2 [Compound 9004D],–
< 10,–,COc1ccc2c(c1)C(=O)N(C[C@@]1(c3cc4cc(N)cnc4o3)NC(=O)NC1=O)C2 [Compound 9211],–
–,< 10,COc1ccc2c(c1)C(=O)N(C[C@@]1(c3ccc(-c4nccs4)cc3)NC(=O)NC1=O)C2 [Compound 8015],Ki [4]: 0.63 nM
–,–,O=C1NC(=O)[C@@](CN2Cc3ccc(F)cc3C2=O)(c2ccc(-c3ccnc(Cl)c3)cc2)N1 [Compound 121],Ki [1]: > 1000 nM
–,–,COC(=O)COc1ccc2c(c1)CN(CC1(c3ccc(Br)cc3)NC(=O)NC1=O)C2=O (stereo not drawn) [Compound 226],Ki [1]: < 10 nM
–,< 10,COc1ccc2c(c1)C(=O)N(CC1(c3ccc(C(F)(F)F)cc3)NC(=O)NC1=O)C2 (stereo not drawn) [Compound 4016],–
–,–,COc1ccc2c(c1)CN(CC1(CN3Cc4cc(OC)ccc4C3=O)NC(=O)NC1=O)C2=O [Compound 33],Ki [1]: 10 to 100 nM
–,–,O=C1NC(=O)[C@@](CN2Cc3ccc(Cl)cc3C2=O)([C@H](O)CO)N1 [Compound 284],Ki [1]: > 1000 nM
–,< 10,CCC#CCOc1ccc2c(c1)C(=O)N(C[C@@]1(c3ccc(F)cc3)NC(=O)NC1=O)C2 [Compound 8010],–
< 10,–,COc1ccc2c(c1)C(=O)N(C[C@@]1(c3cc4ccc(OC)cc4o3)NC(=O)NC1=O)C2 [Compound 9937],–
–,–,COc1ccc2c(c1)CN(CC1(CN[C@H]3CC[C@H](NC(=O)OC(C)(C)C)CC3)NC(=O)NC1=O)C2=O (stereo partly drawn) [Compound 290],Ki [1]: 10 to 100 nM
–,100 to 1000,O=C1NC(=O)C(CN2Cc3cc(OCc4ccc5nsnc5c4)ccc3C2=O)(c2ccc(F)cc2)N1 (stereo not drawn) [Compound 7001],–
< 10,–,COc1ccc2c(c1)C(=O)N(C[C@@]1(c3cc(-c4cccs4)no3)NC(=O)NC1=O)C2 [Compound 9253],–
< 10,–,COc1ccc2c(c1)C(=O)N(C[C@@]1(c3cc4cc(-c5nnn[nH]5)cnc4o3)NC(=O)NC1=O)C2 [Compound 9212],–
–,10 to 100,O=C1NC(=O)C(CN2Cc3ccc(F)cc3C2=O)(c2ccccc2OCc2ccccc2)N1 (stereo not drawn) [Compound 6027],–
–,–,Cc1cc(CN2C(=O)NC(CN3Cc4cc(O)ccc4C3=O)(c3ccccc3)C2=O)c2ccccc2n1 (stereo not drawn) [Compound 192],Ki [1]: 100 to 1000 nM
–,–,CCCCOc1ccc2c(c1)CN(CC1(c3ccc(F)cc3)NC(=O)NC1=O)C2=O (stereo not drawn) [Compound 220],Ki [1]: < 10 nM
–,10 to 100,NC(=O)c1ccc2c(c1)CN(CC1(c3ccc(F)cc3)NC(=O)NC1=O)C2=O (stereo not drawn) [Compound 2032B],–
–,< 10,O=C1NC(=O)[C@](CN2Cc3cc(OCC4CCC4)ccc3C2=O)(c2ccc(F)cc2)N1 [Compound 4004],–
–,< 10,COc1ccc2c(c1)C(=O)N(C[C@@]1(c3ccc(-c4c(C)n[nH]c4C)cc3)NC(=O)NC1=O)C2 [Compound 3015],–
< 10,–,COc1ccc2c(c1)C(=O)N(C[C@@]1(c3cc4ncccc4o3)NC(=O)NC1=O)C2 [Compound 9273],Ki [4]: 1.84 nM

Ki [2] [nM],Ki [3] [nM],Structure (SMILES),other results
–,< 10,CC#CCOc1ccc2c(c1)C(=O)N(C[C@@]1(c3ccc(-c4ccc5nn(CC6CC6)cc5c4)cc3)NC(=O)NC1=O)C2 [Compound 7024],–
< 10,–,COc1ccc2c(c1)C(=O)N(C[C@@]1(c3cn(C(C)C)nn3)NC(=O)NC1=O)C2 [Compound 9263],–
–,–,COc1ccc2c(c1)CN(CC1(C)NC(=O)NC1=O)C2=O (stereo not drawn) [Compound 8],Ki [1]: 10 to 100 nM
< 10,–,COc1ccc2c(c1)C(=O)N(C[C@@]1(c3cc(Cl)c(O)c(Cl)c3)NC(=O)NC1=O)C2 [Compound 9601],–
–,–,O=C1NC(=O)[C@](CN2Cc3ccc(F)cc3C2=O)(c2ccc(-c3cccc4cccnc34)cc2)N1 [Compound 155],Ki [4]: 1.05 nM; Ki [1]: < 10 nM
< 10,–,COc1ccc2c(c1)C(=O)N(C[C@@]1(c3cc4cc(F)ccc4o3)NC(=O)NC1=O)C2 [Compound 9213],–
–,< 10,O=C1NC(=O)[C@](CN2Cc3cc(O)ccc3C2=O)(c2ccc(-c3ccncc3)cc2)N1 [Compound 8020],–
< 10,–,COc1ccc2c(c1)C(=O)N(C[C@@]1(c3ccc(-c4ccc5nc(C(F)(F)F)cn5c4)cc3)NC(=O)NC1=O)C2 [Compound 9707],–
–,–,O=C1NC(=O)[C@](CN2Cc3ccc(F)cc3C2=O)(c2ccc(-c3ccc(F)cc3F)cc2)N1 [Compound 134],Ki [1]: < 10 nM
< 10,–,COc1ccc2c(c1)C(=O)N(C[C@@]1(c3ccc(Oc4ccc(F)cc4)cc3)NC(=O)NC1=O)C2 [Compound 9603],–
–,< 10,O=C1NC(=O)[C@](CN2Cc3ccc(F)cc3C2=O)(c2ccc(-c3ccc(-n4ccnc4)cc3)cc2)N1 [Compound 7018],Ki [4]: 3.25 nM
< 10,–,COc1ccc2c(c1)C(=O)N(C[C@@]1(c3cc(-c4ccncc4)no3)NC(=O)NC1=O)C2 [Compound 9248],–
–,100 to 1000,O=C1NC(=O)[C@@](CN2Cc3ccc(F)cc3C2=O)(c2ccc(-c3ccc4ncsc4c3)cc2)N1 [Compound 3028],–
< 10,–,COc1ccc2c(c1)C(=O)N(C[C@@]1(c3cc4ccncc4o3)NC(=O)NC1=O)C2 [Compound 9220],Ki [4]: 0.75 nM
–,> 1000,Cc1nc(-c2cccc(-c3ccc([C@@]4(CN5Cc6ccc(F)cc6C5=O)NC(=O)NC4=O)cc3)c2)cs1 [Compound 3021],–
–,–,O=C1NC(=O)[C@](CN2Cc3ccc(O)cc3C2=O)(c2ccc(-c3cccc4cccnc34)cc2)N1 [Compound 167],Ki [1]: < 10 nM
–,10 to 100,COc1ccc2c(c1)CN(CC1(c3ccc(O)cc3)NC(=O)NC1=O)C2=O (stereo not drawn) [Compound 5016],–
–,–,O=C1NC(=O)C(CN2Cc3cc(F)c(F)cc3C2=O)(c2ccc(Br)cc2)N1 (stereo not drawn) [Compound 104],Ki [1]: 10 to 100 nM
–,< 10,COc1ccc2c(c1)C(=O)N(C[C@@]1(c3ccc(-c4cnc(O)c(Cl)c4)cc3)NC(=O)NC1=O)C2 [Compound 8013],–
< 10,–,COc1ccc2c(c1)C(=O)N(C[C@@]1(c3ccc(OC(C)C)cc3)NC(=O)NC1=O)C2 [Compound 9628],–
–,< 10,O=C1NC(=O)C(CN2Cc3cc(OCC#CCO)c(F)cc3C2=O)(c2ccc(F)cc2)N1 (stereo not drawn) [Compound 2031D],–
< 10,–,COc1ccc2c(c1)C(=O)N(C[C@@]1(c3cnn([C@@H]4CCOC4)c3)NC(=O)NC1=O)C2 [Compound 9003K],–
–,–,O=C1NC(=O)[C@](CN2Cc3ccc(F)cc3C2=O)(c2ccc(-c3cccs3)cc2)N1 [Compound 148],Ki [1]: < 10 nM
< 10,–,Cc1noc(C)c1-c1ccc([C@]2(CN3Cc4ccc(OC(F)F)cc4C3=O)NC(=O)NC2=O)cc1 [Compound 9510],–
< 10,–,COc1ccc2c(c1)C(=O)N(C[C@@]1(c3cnn(-c4ccc(F)cc4)n3)NC(=O)NC1=O)C2 [Compound 9268],–
< 10,–,COc1ccc2c(c1)C(=O)N(C[C@@]1(c3ccc(-c4cn(C)nc4C(F)(F)F)cc3)NC(=O)NC1=O)C2 [Compound 9504],–
